# Laboratory results from paper PMC8694140, “Synthesis and photobiological applications of naphthalimide–benzothiazole conjugates: cytotoxicity and topoisomerase IIα inhibition” (RSC Advances, 2021).
# Amino acid sequences for entries named in this document (tags omitted). A change or cut given only in a name is not applied to a line headed by its entry.
# UniProt P11388: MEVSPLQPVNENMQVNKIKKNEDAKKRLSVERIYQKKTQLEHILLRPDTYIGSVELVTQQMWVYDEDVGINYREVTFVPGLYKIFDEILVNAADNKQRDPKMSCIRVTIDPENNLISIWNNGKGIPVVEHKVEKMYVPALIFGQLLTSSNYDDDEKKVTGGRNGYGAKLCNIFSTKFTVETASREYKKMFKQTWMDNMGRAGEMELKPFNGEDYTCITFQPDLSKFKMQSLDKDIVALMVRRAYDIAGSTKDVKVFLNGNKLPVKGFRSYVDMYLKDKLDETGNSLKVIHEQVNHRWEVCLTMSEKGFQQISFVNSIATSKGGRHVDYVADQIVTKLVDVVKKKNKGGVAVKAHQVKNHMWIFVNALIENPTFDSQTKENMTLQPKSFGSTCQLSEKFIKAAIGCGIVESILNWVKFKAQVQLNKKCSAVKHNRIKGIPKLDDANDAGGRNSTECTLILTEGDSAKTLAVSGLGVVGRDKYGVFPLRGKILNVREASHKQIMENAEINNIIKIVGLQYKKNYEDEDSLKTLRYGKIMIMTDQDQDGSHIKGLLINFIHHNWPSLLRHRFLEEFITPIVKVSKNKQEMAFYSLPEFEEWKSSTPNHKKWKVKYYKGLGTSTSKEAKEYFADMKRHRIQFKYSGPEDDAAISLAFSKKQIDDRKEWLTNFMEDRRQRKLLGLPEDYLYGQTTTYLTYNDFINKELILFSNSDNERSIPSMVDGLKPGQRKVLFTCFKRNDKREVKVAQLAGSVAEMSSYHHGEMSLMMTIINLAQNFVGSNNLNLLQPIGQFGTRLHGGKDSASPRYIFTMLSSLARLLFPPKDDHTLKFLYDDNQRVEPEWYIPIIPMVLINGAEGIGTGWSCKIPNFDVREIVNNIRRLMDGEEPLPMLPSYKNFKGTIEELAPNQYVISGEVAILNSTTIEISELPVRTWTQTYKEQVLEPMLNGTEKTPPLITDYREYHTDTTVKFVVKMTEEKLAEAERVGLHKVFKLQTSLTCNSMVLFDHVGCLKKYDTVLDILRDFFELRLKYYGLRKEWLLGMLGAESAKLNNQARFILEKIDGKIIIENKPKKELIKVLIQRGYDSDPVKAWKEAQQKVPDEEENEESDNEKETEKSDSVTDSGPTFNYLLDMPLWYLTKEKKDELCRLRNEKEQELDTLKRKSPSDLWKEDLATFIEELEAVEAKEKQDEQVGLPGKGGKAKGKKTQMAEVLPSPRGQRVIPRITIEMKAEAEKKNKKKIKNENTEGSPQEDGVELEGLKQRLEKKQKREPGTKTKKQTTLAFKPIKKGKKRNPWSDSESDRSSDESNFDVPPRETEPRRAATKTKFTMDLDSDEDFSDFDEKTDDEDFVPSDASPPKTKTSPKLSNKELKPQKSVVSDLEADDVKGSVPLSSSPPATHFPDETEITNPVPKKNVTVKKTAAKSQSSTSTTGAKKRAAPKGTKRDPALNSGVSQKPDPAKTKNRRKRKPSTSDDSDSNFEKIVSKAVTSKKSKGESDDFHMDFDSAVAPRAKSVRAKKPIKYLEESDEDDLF
# Biological target: human type IIa topoisomerase (Homo sapiens, UniProt P11388)
# Assay: Relaxation assay of human topoisomerase IIa (supercoiled pHOT1 plasmid DNA, agarose gel)
# Type: biochemical
# Settings: positive control, 25 μM per figure legend
# Source text: The unwinding of DNA double helix is highly recommended at the time of replication and transcription in cell division which causes the helical tension to rise in the rest of the molecule of DNA. Topoisomerase, the nuclear enzyme, drives the topological changes and releases the tension of DNA, thus, necessary for cell proliferation.[28,29] Especially human type II topoisomerase (topo IIa) has been found an effective target in cancer treatment.[30,31] […] In TOPO II inhibition assay, supercoiled plasmid DNA was treated with human topoisomerase II in the presence of the reference compound (etoposide) or tested compounds at concentrations of 1, 5, 10, and 50 μM.
# A further experiment was repeated to determine the more accurate concentration value of compounds required for topoisomerase inhibition. The concentrations 0.1, 0.5, 1, 1.5, 2, and 3 μM were taken for both compounds (Fig. 3).
# The assay of human type IIa topoisomerase mediated relaxation of supercoiled plasmid DNA was performed using reaction buffer (20 μl) (5 mM dithiothreitol, 0.5 M Tris–HCl, pH 8.0, 20 mM ATP, 1.50 M NaCl, 300 μg ml^−1 BSA, and 100 mM MgCl2) having supercoiled pHOT1 plasmid DNA (500 ng) and human type IIa topoisomerase enzyme (4 units). The reaction mixtures were incubated for 30 min at 37 °C, followed by adding 10% sodium dodecyl sulfate (2 μl) to stop the reaction. […]
smiles,measurement,value
"COc1cc([C@@H]2c3cc4c(cc3[C@@H](O[C@@H]3O[C@@H]5CO[C@@H](C)O[C@H]5[C@H](O)[C@H]3O)[C@H]3COC(=O)[C@H]23)OCO4)cc(OC)c1O [Etoposide, reference compound]",inhibition of topoisomerase II by reference compound,Inhibition of topoisomerase II was detected
